Source: patent publication US20210330611A1, “THERAPY FOR NEUROLOGICAL DISEASES/DISORDERS” (priority 2020, published 2021)
Where a name gives a salt, the structure may show the parent alone.

System: primary rat microglia

## CN1CCc2cccc3c2[C@H]1Cc1ccc(O)c(O)c1-3 [Apomorphine Hydrochloride]
  LPS % cell toxicity: 0%
